Laboratory results from patent publication US20060293323A1, “Therapeutic Combinations of erb B Kinase Inhibitors and Antineoplastic Therapies” (priority 2002, published 2006).

System: 253J B-V human bladder carcinoma
Conditions: paclitaxel alone 8 mg/kg IP days 14, 20 and 27

SMILES: CC(=O)O[C@H]1C(=O)[C@@]2(C)[C@H]([C@H](OC(=O)c3ccccc3)[C@]3(O)C[C@H](OC(=O)[C@H](O)[C@@H](NC(=O)c4ccccc4)c4ccccc4)C(C)=C1C3(C)C)[C@]1(OC(C)=O)CO[C@@H]1C[C@@H]2O [paclitaxel, reference compound]
- bladder tumor mass: did not significantly reduce the bladder tumor mass
